According to PubChem BioAssay AID485346 (Sanford-Burnham Center for Chemical Genomics, 2010):
The list shows a part of the results, in another mix than the full data. Activity calls are given as the source filed them.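 Rule for the calls: active = inhibition of at least 50% at 8 µM in the primary screen; inactive = the rest.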

Chains of the proteins cited; added tags and fusions are not shown.
UniProt O15151, whole entry, looked up: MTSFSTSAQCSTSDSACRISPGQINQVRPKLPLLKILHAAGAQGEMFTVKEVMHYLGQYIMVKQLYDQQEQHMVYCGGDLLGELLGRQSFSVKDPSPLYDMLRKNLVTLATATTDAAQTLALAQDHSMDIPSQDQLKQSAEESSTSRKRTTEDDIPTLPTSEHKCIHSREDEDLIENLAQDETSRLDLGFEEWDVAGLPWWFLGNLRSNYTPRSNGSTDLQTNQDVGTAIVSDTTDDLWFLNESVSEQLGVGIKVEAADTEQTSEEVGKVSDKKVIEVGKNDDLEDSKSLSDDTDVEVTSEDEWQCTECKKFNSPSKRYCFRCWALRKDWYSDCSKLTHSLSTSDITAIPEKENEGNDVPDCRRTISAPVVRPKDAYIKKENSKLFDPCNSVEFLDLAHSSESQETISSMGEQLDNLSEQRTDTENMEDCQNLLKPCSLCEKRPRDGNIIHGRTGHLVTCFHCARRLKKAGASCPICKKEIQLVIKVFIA
UniProt Q00987, whole entry, looked up: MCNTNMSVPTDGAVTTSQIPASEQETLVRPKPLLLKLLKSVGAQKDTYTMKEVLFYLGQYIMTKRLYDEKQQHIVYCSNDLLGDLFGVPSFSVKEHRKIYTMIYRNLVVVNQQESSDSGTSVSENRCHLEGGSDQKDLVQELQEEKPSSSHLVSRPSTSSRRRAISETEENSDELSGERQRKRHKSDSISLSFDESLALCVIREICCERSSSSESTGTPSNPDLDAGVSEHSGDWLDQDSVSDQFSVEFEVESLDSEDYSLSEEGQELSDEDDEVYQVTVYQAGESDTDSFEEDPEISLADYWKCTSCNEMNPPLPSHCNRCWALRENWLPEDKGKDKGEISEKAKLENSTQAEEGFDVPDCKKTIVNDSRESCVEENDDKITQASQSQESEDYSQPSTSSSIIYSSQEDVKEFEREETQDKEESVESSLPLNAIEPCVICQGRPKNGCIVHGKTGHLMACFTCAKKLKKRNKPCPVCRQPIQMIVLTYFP

biological target: Protein Mdm4 (Homo sapiens) + E3 ubiquitin-protein ligase Mdm2 (Homo sapiens) (UniProt O15151+Q00987); assay: inhibitors of human Mdm2-MdmX association, primary screen, cell-based, luminescence, split luciferase, SaOS-2, uHTS (AID 485346); details: SaOS-2 split-luciferase Mdm2/MdmX complementation, at 8 µM, hits give high values

Row | Structure (SMILES) | inhibition
1 | O=C(NCC1(N2CCOCC2)CCCCC1)c1cc(=O)[nH]c2ccccc12 | inactive: 10.1%
2 | COc1cc(C(=O)NCC2(N3CCCCC3)CCCCC2)ccc1OC(F)F | inactive: -4.2%
3 | CC(C)c1ccc(C(=O)NCC2(N3CCOCC3)CCCCC2)cc1 | inactive: 7.22%
4 | COc1ccc(NC2CCN(C(=O)OC(C)(C)C)CC2)cc1 | inactive: 4.46%
5 | CN1CCN(CCOC(=O)C(O)(c2ccccc2)c2ccccc2)CC1 | inactive: -25.8%
6 | O=C(NCC1(N2CCCCC2)CCCCC1)c1cccc(C(F)(F)F)c1 | inactive: -11.7%
7 | CCN1CCC(Nc2ccc(Cl)cc2)CC1 | inactive: 6.72%
8 | N#CC1(Nc2ccccc2)CCN(CCc2ccccc2)CC1 | inactive: 15.6%
9 | CSc1ccc(C(=O)NCC2(N3CCOCC3)CCCCC2)cc1 | inactive: 10.8%
10 | O=C(NCC1(N2CCCCC2)CCCCC1)c1cccc([N+](=O)[O-])c1 | inactive: 1.9%
11 | O=C(NCC1(N2CCCCC2)CCCCC1)c1ccc(OC(F)F)cc1 | inactive: 2.46%
12 | O=C(NCC1(N2CCCCC2)CCCCC1)c1cncc(Br)c1 | inactive: -20.4%
13 | CN1CCC(Nc2cccc(F)c2)CC1 | inactive: 0.196%
14 | COc1cc(OC)c(C(=O)NCC2(N(C)C)CCCCC2)cc1OC | inactive: 15.9%
15 | O=C(NCC1(N2CCOCC2)CCCCC1)c1cc(F)c(F)cc1Cl | inactive: 10.6%
16 | CC(C)c1ccc(NC2CCN(C(=O)OC(C)(C)C)CC2)cc1 | inactive: -24.7%
17 | COc1ccc(CN(CCCl)CCCl)cc1Cl | inactive: -8.69%
18 | CN(C)c1cccc(C(=O)NCC2(N3CCCCC3)CCCCC2)c1 | inactive: -14.7%
19 | O=C(OC1CN2CCC1CC2)C1c2ccccc2Oc2ccccc21 (configuration not stated) | inactive: 11.6%
20 | N#CC1(Nc2ccccc2)CCN(Cc2ccccc2)CC1 | inactive: -21.2%
21 | O=C(NCC1(N2CCCCC2)CCCCC1)c1ccc(Cl)s1 | inactive: 10.6%
22 | COc1ccc(Cl)cc1C(=O)NCC1(N2CCOCC2)CCCCC1 | inactive: 12.5%
23 | CCOC(=O)N1CCC(Nc2ccc(OC)cc2)CC1 | inactive: 8.13%

Row | Structure (SMILES) | inhibition
24 | O=C(NCC1(N2CCCCC2)CCCCC1)c1ccc(Cl)nc1 | inactive: 23.5%
25 | Cc1cc(C)cc(N(C(=O)c2ccccc2)C2CCN(C(=O)OC(C)(C)C)CC2)c1 | inactive: 13%
26 | O=C(NCC1(N2CCOCC2)CCCCC1)c1cc2ccccc2o1 | inactive: 4.86%
27 | CSc1ccccc1C(=O)NCC1(N2CCCCC2)CCCCC1 | inactive: -18.9%
28 | COc1ccc(C(=O)NCC2(N3CCCCC3)CCCCC2)cc1 | inactive: 6.81%
29 | CC(C)(C)OC(=O)N1CCC(N(C(=O)c2ccccc2)c2ccc(F)cc2)CC1 | inactive: 14.6%
30 | COc1ccc(C(=O)NCC2(N3CCCCC3)CCCCC2)c(OC)c1OC | inactive: 8.47%
31 | O=C(NCC1(N2CCCCC2)CCCCC1)c1ccc(=O)[nH]c1 | inactive: 2.31%
32 | O=C(NCC1(N2CCCCC2)CCCCC1)c1cccs1 | inactive: 13.1%
33 | CCOC(=O)N1CCC(Nc2cccc(C)c2)CC1 | inactive: -14.9%
34 | Cc1ccc(OCC(C)C)c(CN(CCCl)CCCl)c1 | inactive: 24.2%
35 | O=C(NCC1(N2CCCCC2)CCCCC1)c1ccc(F)cc1 | inactive: 7%
36 | CCCCOc1ccc(C(=O)NCC2(N3CCOCC3)CCCCC2)cc1 | inactive: -12.3%
37 | CCOC(=O)N1CCC(Nc2ccc(F)cc2)CC1 | inactive: 3.04%
38 | COc1ccc(NC2CCN(CCc3ccccc3)CC2)c(OC)c1 | inactive: 8.67%
39 | CCOc1ccc(C)cc1CN(CCCl)CCCl | inactive: 9.31%
40 | O=C(NCC1(N2CCCCC2)CCCCC1)c1ccco1 | inactive: -21.3%
41 | CN(C)c1ccc(C(=O)NCC2(N3CCCCC3)CCCCC2)cc1 | inactive: 0.132%
42 | CCN1CCC(Nc2cccc(F)c2)CC1 | inactive: 15.2%
43 | Cc1ccc(C(=O)NCC2(N3CCCCC3)CCCCC2)o1 | inactive: -19.9%
44 | Fc1ccccc1NC1CCN(Cc2ccccc2)CC1 | inactive: 10.5%
45 | COc1cc(OC)cc(C(=O)NCC2(N3CCCCC3)CCCCC2)c1 | inactive: -26.3%
46 | CN1CCC(Nc2ccc(Cl)cc2)CC1 | inactive: 16.5%

Row | Structure (SMILES) | inhibition
47 | CCCOc1ccc(C)cc1CN(CCCl)CCCl | inactive: 13.9%
48 | COc1cccc(C(=O)N(c2cc(C)cc(C)c2)C2CCN(C(=O)OC(C)(C)C)CC2)c1 | inactive: 13.8%
49 | COc1cc(OC)cc(C(=O)NCC2(N3CCOCC3)CCCCC2)c1 | inactive: 13%
50 | CCC(CO)(C(=O)OC1CN2CCC1CC2)c1ccccc1 (configuration not stated) | inactive: -21.2%
51 | CC(C)(C)OC(=O)N1CCC(Nc2ccccc2)CC1 | inactive: -19.4%
52 | O=C(O)C1(Nc2ccccc2)CCN(Cc2ccccc2)CC1 | inactive: 3.9%
53 | CCCOc1ccc(C(=O)NCC2(N(C)C)CCCCC2)cc1 | inactive: -1.86%
54 | CCOc1ncccc1C(=O)NCC1(N2CCOCC2)CCCCC1 | inactive: 10.5%
55 | CN1CCC(Nc2ccc(F)c(Cl)c2)CC1 | inactive: 19.6%
56 | O=C(OC1CN2CCC1CC2)C1c2ccccc2C=Cc2ccccc21 (configuration not stated) | inactive: 27%
57 | CCc1cc(C(=O)NCC2(N3CCCCC3)CCCCC2)sc1C | inactive: -16.5%
58 | CCOC(=O)N1CCC(Nc2ccc(C)cc2)CC1 | inactive: 22.6%
59 | N/C(=N\O)c1c(N)no[n+]1[O-] | inactive: 16.5%
60 | COc1ccc(C(=O)NCC2(N3CCOCC3)CCCCC2)cc1OC | inactive: -14.8%
61 | COc1cc(C(=O)NCC2(N3CCOCC3)CCCCC2)cc(OC)c1C | inactive: 0.45%
62 | O=C(NCC1(N2CCOCC2)CCCCC1)c1cc(Br)ccc1Cl | inactive: 16.5%
63 | CN(C)C1(CNC(=O)c2cccc(C#N)c2)CCCCC1 | inactive: -22.9%
64 | c1ccc(CN2CCC(Nc3ccccc3)CC2)cc1 | inactive: -2.46%
65 | CCCN1CCC(Nc2cc(OC)cc(OC)c2)CC1 | inactive: 17%
66 | N#Cc1ccc(C(=O)NCC2(N3CCCCC3)CCCCC2)cc1 | inactive: -14.8%
67 | CC(C)(C)OC(=O)N1CCC(N(C(=O)c2ccccc2)c2ccc(Cl)cc2)CC1 | inactive: 10.8%
